Measured values from US5576187A (priority 1994, dated 1996).
Only a part of the results on these compounds is given; other tests are left out.

Experiments:
[1] = test system: anti-chlorpyrifos monoclonal antibody; settings: competition assay, 15 minutes at room temperature, absorbance at 450 nm
[2] = storage at 50, 37, RT, 4, or minus 20° C.; curves only in FIGS. 2-5

CCOP(=S)(Cl)OCC
relative reactivity: concentration equivalent to 1 ppB of chlorpyrifos in the immunoassay [1]: 8 ppm
stability upon storage (B/Bo in the immunoassay as a function of storage time and temperature) [2]: more stable than chlorpyrifos
